Test results reported in patent publication US20170074857A1, “MEDICATION ADHERENCE MONITORING DEVICE” (UNIVERSITY OF FLORIDA RESEARCH FOUNDATION, INC., priority 2014, published 2017).
Like-named read-outs stand apart in the source and are kept apart here.

What was measured:
[1] = cited from earlier work
[2] = orally; FDA Q3C guidance; cited from earlier work
[3] = rats; Dietz; cited from earlier work

2-butanol [Formulation 2-butanol]
LD50 Oral Rat [1]: 6480 mg/kg
ketone:alcohol ratio 2-butanone/2-butanol in breath (2-butanol ingested (oral)): > 1
ketone:alcohol ratio 2-butanone/2-butanol in breath (non-oral routes (e.g., transdermal, mucous membranes, intravenous, eye)): < 1
permissible daily exposure (PDE) [2]: 300 mg/day
ingested 2-butanol metabolized to 2-butanone [3]: approximately 97%
